## AlphaSeq binding of Ab-14 heavy chain variants to a spike HR2 peptide

The measurements come from Engelhart et al. 2022 (doi:10.1038/s41597-022-01779-4) through the FLAb antibody collection.

Binding partner: SARS-CoV-2 spike HR2 peptide, sequence PDVDLGDISGINAS.

The variants keep the light chain, the linker and the frameworks of Ab-14 (scFv order VH, a (GGGGS)3 linker, VL).
VH: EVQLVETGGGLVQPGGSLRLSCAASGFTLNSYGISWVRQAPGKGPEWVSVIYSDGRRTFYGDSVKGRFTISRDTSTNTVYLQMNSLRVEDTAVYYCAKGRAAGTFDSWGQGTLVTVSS
VL: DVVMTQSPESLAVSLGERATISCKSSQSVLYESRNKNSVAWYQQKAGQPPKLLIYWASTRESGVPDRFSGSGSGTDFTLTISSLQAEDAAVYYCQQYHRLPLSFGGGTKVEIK

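Phage display of a naive human antibody library on the peptide gave the parent. In library AAYL49, one, two or three CDR residues were substituted; doubles and triples were drawn at random. The scFvs were displayed on barcoded MATa yeast, the peptide on MATalpha yeast. Pairs that bind mate more often; barcode pairs of the diploids are counted by sequencing. The ratio of observed to expected reads was calibrated, replicate by replicate, on BCL2-family standards whose Kd was known from biolayer interferometry. Mating was done three times.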

Substitutions are numbered in sequence along the VH above, starting at 1 (not Kabat).
Numbers give log10(Kd / nM), so 0 is 1 nM and 3 is 1 µM. Smaller is tighter.
The mean shown is taken over the replicates in which the pair was detected.
An entry "no signal" has no value in the source: the pair was not observed among the diploids in any replicate. This suggests poor binding but is not conclusive.
Empty control strains, which show no peptide, gave a signal in 15% of pairings with library AAYL49; the median was 4.06 and 95% of these signals were weaker than 2.83. No background was subtracted.

| log10 Kd (nM), mean | detected | changes |
|---|---|---|
| 3.62 | 1/3 | Y52M/G55S/R56N |
| 2.51 | 1/3 | S35V/R57A |
| no signal | 0/3 | S53K/G61N/V64H |
| no signal | 0/3 | N30I/S35W/G99W |
| no signal | 0/3 | Y32H/F59W/A101N |
| no signal | 0/3 | S31C/D106N |
| no signal | 0/3 | T28K/S63Y/V64E |
| no signal | 0/3 | A101W/A102R |
| no signal | 0/3 | L29T/R56C/T58N |
| 3.60 | 1/3 | Y32F/S53Q/S63P |
| no signal | 0/3 | Y32T/D62I |
| no signal | 0/3 | S31Y/T104S/D106L |
| 3.49 | 2/3 | Y60I/S63G/F105M |
| no signal | 0/3 | V50E/R100I/A101Q |
| 5.01 | 1/3 | R57A/A101D/S107F |
| no signal | 0/3 | Y52A/S63C/D106P |
| no signal | 0/3 | F27M/V50D/K65G |
| 1.78 | 3/3 | G26D/R56E/R100K |
| no signal | 0/3 | L29V/R57P/A101P |
| 2.59 | 1/3 | I34C/D54E/D62L |
| no signal | 0/3 | F27L/N30P/F105S |
| no signal | 0/3 | F27P/N30F/G61E |
| no signal | 0/3 | F27V/S35R/Y52F |
| 3.38 | 3/3 | T58I/G61C/F105R |
| 3.73 | 2/3 | L29W/Y32Q/K65I |
| 0.59 | 3/3 | G26R/N30E/F105D |
| no signal | 0/3 | I51S/T104F/F105I |
| no signal | 0/3 | L29K/N30R/T58Y |
| no signal | 0/3 | F27I/Y52E/Y60F |
| no signal | 0/3 | S53K/G61C/S63Q |
| 4.69 | 1/3 | I51Y/T58V/S63G |
| no signal | 0/3 | N30V/V50R/D106C |
| 3.67 | 1/3 | S35A/G99V/A102R |
| 2.52 | 1/3 | F59R/S63A/S107P |
| 4.67 | 1/3 | I34E/S53V/D106T |
| 5.51 | 1/3 | F27G/Y52H/F105S |
| 3.80 | 3/3 | G26H/T28F/S31A |
| 4.84 | 1/3 | L29K/Y52L/F59S |
| 3.75 | 1/3 | S53I/D62L/A101L |
| 2.15 | 3/3 | L29V/R56D/D62A |
| 4.91 | 2/3 | D54C/A102I/G103D |
| 3.11 | 1/3 | R57A/S63G/G103N |
| no signal | 0/3 | V50E/F59D/A101K |
| 4.46 | 2/3 | G33I/Y52E/V64R |
| 2.93 | 1/3 | N30S/D54S/D106L |
| 4.02 | 2/3 | G61L/S63Q/F105Q |
| 4.96 | 1/3 | T28F/G33V/K65D |
| no signal | 0/3 | V50Y/S53K/S107K |
| no signal | 0/3 | N30C/S53C/T104R |
| 3.90 | 2/3 | G26K/T58D/F105K |
| 3.79 | 1/3 | A102P/T104Q/D106I |
| no signal | 0/3 | F27S/R57D/S107Y |
| 1.98 | 3/3 | R100L/T104G/D106R |
| no signal | 0/3 | F27K/V50W/S63E |
| 4.41 | 2/3 | G55A/A101C |
| 5.25 | 1/3 | G26E/T28P/G103T |
| 3.73 | 2/3 | Y60F/V64E/K65Y |
| no signal | 0/3 | F27A/I51P/Y52D |
| no signal | 0/3 | D54S/R57T/F59A |
| 2.10 | 3/3 | G26S/G99R/A101V |
| 5.35 | 1/3 | V50S/G55E/S107T |
| no signal | 0/3 | S53T/G55C/T104Y |
| 1.80 | 1/3 | T28N/Y52F/A101Q |
| 3.16 | 1/3 | Y52R/F59N/S63Q |
| 4.85 | 2/3 | S35I/D54I/R100T |
| no signal | 0/3 | D62F/R100W/S107D |
| 2.26 | 1/3 | T28V/S31L |
| no signal | 0/3 | T58W/K65R/T104D |
| 3.61 | 1/3 | L29V/Y60P |
| no signal | 0/3 | N30D/I34H/A102K |
| 3.67 | 1/3 | G61F/D62Q/R100N |
| 3.30 | 3/3 | R56K/T58L/K65D |
| no signal | 0/3 | T28A/I34K/Y60G |
| 3.94 | 1/3 | N30R/S31P/R56Y |
| no signal | 0/3 | F59M/G103V/D106S |
| 3.37 | 1/3 | V50T/T58E/Y60N |
| no signal | 0/3 | S35D/G99W/A101Y |
| 4.84 | 2/3 | G61T/S63T/F105P |

The 8 strongest on average among those seen in every replicate, once more:

changes,"log10 Kd (nM), mean",detected
G26R/N30E/F105D,0.59,3/3
G26D/R56E/R100K,1.78,3/3
R100L/T104G/D106R,1.98,3/3
G26S/G99R/A101V,2.10,3/3
L29V/R56D/D62A,2.15,3/3
R56K/T58L/K65D,3.30,3/3
T58I/G61C/F105R,3.38,3/3
G26H/T28F/S31A,3.80,3/3